# Measurements reported in patent publication US8440701B2, “Trisubstituted 1,2,4 triazoles” (Janssen Pharmaceutica NV, priority 2007, dated 2013).
# Sequences of proteins named here, by UniProt entry; tags and fusion partners are left off. Residues count along the entry.
# UniProt P36544, 23-502 limits assumed: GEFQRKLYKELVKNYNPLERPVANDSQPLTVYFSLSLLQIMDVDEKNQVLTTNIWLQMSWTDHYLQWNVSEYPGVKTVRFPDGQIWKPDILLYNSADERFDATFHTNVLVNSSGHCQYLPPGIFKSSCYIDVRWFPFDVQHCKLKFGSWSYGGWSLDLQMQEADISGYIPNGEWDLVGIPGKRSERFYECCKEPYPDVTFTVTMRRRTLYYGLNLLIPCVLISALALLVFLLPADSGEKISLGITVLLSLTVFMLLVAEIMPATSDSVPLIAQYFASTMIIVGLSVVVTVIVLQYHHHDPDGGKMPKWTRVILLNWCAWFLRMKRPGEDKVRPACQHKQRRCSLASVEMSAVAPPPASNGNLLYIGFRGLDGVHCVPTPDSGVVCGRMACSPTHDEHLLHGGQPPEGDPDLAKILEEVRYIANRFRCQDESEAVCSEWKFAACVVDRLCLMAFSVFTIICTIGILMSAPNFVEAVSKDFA
# Columns and labels:
# [1] = molecular target: T1, hα7-wt nAChR (Homo sapiens, UniProt P36544); assay: Ca2+ flux imaging (FDSS), potentiation of choline response; settings: for pEC50: hα7-wt nAChR-expressing GH4C1 cells, potentiation of 100 μM choline, compounds 0.01 μM to 30 μM; for % Efficacy: maximal effect, efficacy of 100 μM choline defined as 100% in the absence of a PAM, GH4C1 cells
# Method: Ca^2+ Flux Imaging (FDSS)
# • Hanks buffered saline solution (HBSS, Invitrogen, Belgium), supplemented with 10 mM HEPES (Invitrogen, Belgium), CaCl2 to a final concentration of 5 mM, 0.1% Bovine serum albumin (Sigma-Aldrich NV, Belgium). b) Calcium-Sensitive Dye—Fluo-4AM • Fluo-4AM (Molecular Probes, USA) was dissolved in DMSO containing 10% Pluronic acid (Molecular Probes, USA) to give a stock solution which was diluted in assay buffer supplemented with 5 mM probenicid (Sigma, Aldrich NV, Belgium) to give a final concentration of 2 μM. c) 384-Well Plates • Black 384 well plate black/clear plates, PDL pre-coated (Corning, Incorporated, USA) d) Calcium Flux Measurement • A Functional drug screening system (FDSS, Hamamatsu) was used to measure intracellular free-calcium flux signals. Method
# Monolayers of hα7-wt nAChR-expressing GH4C1 cells were grown in multi-well plates, in particular black-sided, transparent bottomed 384 well plates coated with poly-D-lysine for 24 hours prior to loading with a fluorescent calcium indicator, in a particular embodiment loading with fluo-4AM for up to 120 minutes.
# PAM activity was detected in real time by applying the compound to be tested to the loaded cells along with a α7 nicotinic receptor agonist during constant monitoring of the cellular calcium mobilization by fluorescence in a FDSS. Compounds giving peak fluorescent responses greater than the response due to agonist alone, were considered to be α7 nAChR PAM's. In a particular embodiment, the α7 nicotinic receptor agonist was choline, a more particular embodiment choline applied at a sub-maximal concentration of 100 μM. In a further setting of the present invention the compounds to be tested were applied prior to the α7 nicotinic receptor agonist, in a particular embodiment up to 10 minutes prior to the agonist.
# A control response to choline was calculated on each plate from the difference in peak in fluorescence in wells receiving either choline or assay buffer alone. Compounds of the present invention were tested at a concentration range from 0.01 μM to 30 μM. Compounds were considered to have an interesting activity when they potentiated the choline signal at least with 200% when tested at a concentration of 30 μM (the efficacy of 100 μM choline was defined as 100% in the absence of a PAM).
# EC50 values (potency), maximal effect (% efficacy), and Hill slopes were estimated by fitting the sigmoidal equation to the data using GraphPad Prism (GraphPad Software, Inc., San Diego, Calif.). An EC50 (or pEC50) was determined as a concentration relating to half the maximal effect, when a clear sigmoidal curve with top plateau was obtained.
# [2] = molecular target: T1, hα7-wt nAChR; assay: Whole-cell voltage-clamp recording, PAM type classification; settings: qualitative kinetic properties; 1 mM choline; hα7-wt nAChR-expressing GH4C1 cells
# Method: The compounds of the present invention are classified as type 1-4, based on qualitative kinetic properties, as determined by whole-cell voltage-clamp recordings. This classification is based on the effect of an α7 PAM compound, as described hereinbefore, on the signal elicited by an agonist application. In particular, said agonist is choline at a concentration of 1 mM. In a preferred experimental setting, said α7 PAM compound and choline are simultaneously applied to the cell, as described hereinafter. Desensitization is defined as the closure of the receptor upon activation during the application of the agonist in whole-cell voltage-clamp electrophysiology measurements seen as the reduction of the […] current after initial activation by the agonist.
# The definition of the PAM types 1-4 is described hereinafter: • Type 1 compounds enhance the effect size of the current elicited by 1 mM choline but minimally alter the kinetics of the receptor. In particular, the rate and the extent of desensitization, elicited by the agonist, is not affected. The compound-modulated response to 1 mM choline, therefore, is a close to linear scaling of the 1 mM choline response in absence of the α7 PAM compound. • Type 2 compounds enhance the effect size of the current elicited by 1 mM choline while reducing the rate and/or the extent of desensitization. • Type 3 compounds enhance the effect size of the current elicited by 1 mM choline. […] At low-potency concentrations of the α7 PAM compound, the agonist-induced activation, which is followed by desensitization, can still be separated from the compound-induced re-opening as an initial inward current-maximum. At higher potency concentrations of the α7 PAM compound, the re-opening occurs faster than the closure due to desensitization so that the initial current-maximum disappears.
# The compounds of the present invention also have a potentiating effect on the response to choline when measured by whole-cell voltage-clamp electrophysiology in GH4C1 cells stably over-expressing the human wild-type α7 receptor, as described hereinafter. […]
pEC50 [1],% Efficacy [1],PAM_type [2],Compound
6.00,1270%,2,CC[C@@H](O)Cn1nc(Nc2ccc(F)c(F)c2)nc1-c1cc(C)nc(C)c1
6.45,1150%,1,"CCCCC(O)Cn1nc(Nc2ccc(F)c(F)c2)nc1-c1ccnc(C)c1 (single isomer, unassigned) [E11]"
6.58,,2,"CCCCC(O)Cn1nc(Nc2ccc(F)c(F)c2)nc1-c1ccnc(C)c1 (single isomer, unassigned) [E12]"
